A549 viability: counter-screen for Nrf2 inhibitors: cytotoxicity in A549 cells; A549 ARE-Fluc cells, CellTiter-Fluor viability, 18-24 h; Potency, µM (titrated, usually from 46 µM), for the others: at the top dose activity change, negative = cytotoxicity, hits mostly inhibitors; actives 0.16% (n = 390,000); AID 504648; further: potency means the concentration at half of the fitted maximal effect; on the % scale 0 is the no-effect control and ±100 the full control effect
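A549 ARE-Fluc cells in 5% FBS OPTI-MEM, 5000 cells/well, rested 2 h then exposed to compounds in concentration-response for 18-24 h at 37 °C. Viability by CellTiter-Fluor fluorescence (Ex 405/Em 525) after 30 min; luciferase luminescence (BugLite, 15 min, RT) read afterwards.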
ClpP mod: qHTS Assay for Activators of ClpP; purified B. subtilis ClpP, FRET peptide cleavage, 20 min; AID 651965, 2013; ATP-dependent Clp protease proteolytic subunit (Bacillus subtilis (strain 168)), P80244; actives 1.9% (n = 340,000); Potency, µM (titrated, usually from 57.5 µM), for the others: top-dose activity change, negative = active; active means well fitted falling curve with a large enough effect; inconclusive means small, poorly fitted or top-dose-only effect; inactive means no such curve, though single readings can be large or run the other way; further: potency means the concentration at half of the fitted maximal effect; the source files actives as falling curves though it sought activators and does not explain the sign; nearly all actives have a fitted effect of over 65% in size
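FRET quenching reversal measured ClpP activation: 10 microg/mL B. subtilis ClpP at pH 8 with the FRET-FV decapeptide, read at 430 nm after 320 nm excitation. The 20-min minus 0-min signal was scaled between DMSO/no-enzyme wells and ADEP (5.8 microM final).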
p53 reactivator: mutant p53 re-activation in reporter cells; H1299 p53-A138V BP100-luciferase reporter, luminescence, 24 h; Potency, µM (top dose mostly 92.2 µM), without a hit: at the top dose activity change, positive = activation, usual class: activators; actives 0.063% (n = 320,000); AID 504706; further: potency means the concentration at half of the fitted maximal effect; % of control where 0% means no effect; nearly all actives have a fitted effect of over 45% in size
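H1299 (p53-null), stable ts p53-A138V + BP100-Luc; 1000 cells/well, Opti-MEM/10% FBS; cpd 4 pt, 1:5; 24 h, 37 deg C, 5% CO2; detection reagent 10 min RT; luminescence.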
Nrf2 block: Nrf2 pathway inhibition. A549 ARE-Fluc reporter, luciferase luminescence, 18-24 h. Potency, µM (doses to about 46 µM), for inactives: top-dose activity change, negative = inhibition, hits mostly inhibitors. actives 2.1% (n = 360,000). AID 504444; further: potency means the concentration at half of the fitted maximal effect; on the % scale 0 is the no-effect control and ±100 the full control effect; nearly all actives have a fitted effect of over 60% in size
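Nrf2 function is reported as luminescence of an ARE-controlled luciferase in A549 cells. Compounds were tested at several concentrations, and a CellTiter-Fluor read on the same wells flagged cytotoxicity.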
Nrf2 activator: activators of Nrf2 (ARE) signaling | AREc32 ARE-luciferase reporter (MCF7-derived line), luminescence, 24 h | AID 624171 | actives 0.31% (n = 410,000) | Potency, µM (doses to about 46.1 µM), for the others: at the top dose activation, actives largely listed as activators; further: potency means the concentration at half of the fitted maximal effect; % of control where 0% means no effect; nearly all actives have a fitted effect of over 65% in size
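Cells of the AREc32 ARE-luciferase line are plated in OPTI-MEM containing 5% FBS and left overnight at 37 deg C. Compounds are pinned in, incubation continues 24 hr, and firefly luciferase signal is then measured.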
miR-21 FLuc: miR-21 reporter, rising signal. HeLa miR-21 FLuc reporter, luciferase, 48 h. Potency, µM (titrated, usually from 38.3 µM), without a hit: at the top dose reporter change, positive = more light. 340,000 tested, under 10 active. AID 2288; active = well fitted rising curve with a large enough effect; inconclusive = small, poorly fitted or top-dose-only effect; inactive = no such curve, though single readings can be large or run the other way;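 also: % of control where 0% means no effect; miR-21 action dims this reporter so a rising signal means less miR-21 action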
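HeLa miR-21-FLuc reporter line, endogenous miR-21; 2000 cells/well in DMEM/10% FBS; compound titration up to ~40uM final, 48 h, 37 degree Celsius; luciferase detection reagent, 15 min lysis, CCD luminescence.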
* marks the source's active call; other numbers are inactive results; ? = inconclusive; / = not tested or not shown; [ ] = another dose, or the depositor's remark. This is a sample that favours compounds with a hit; in the whole collection about 3.7% have one here. Unless noted, the call rests on the fitted dose curve; in most records, active means well fitted curve in the direction sought with a large enough effect; inconclusive means small, poorly fitted or top-dose-only effect, or another doubt; inactive means no such curve, though single readings can be large; an effect the other way counts as inactive or inconclusive.

By UniProt entry, the sequences of proteins in these tests, tags left out.
ATP-dependent Clp protease proteolytic subunit (Bacillus subtilis (strain 168)), P80244, UniProt P80244, whole entry, looked up: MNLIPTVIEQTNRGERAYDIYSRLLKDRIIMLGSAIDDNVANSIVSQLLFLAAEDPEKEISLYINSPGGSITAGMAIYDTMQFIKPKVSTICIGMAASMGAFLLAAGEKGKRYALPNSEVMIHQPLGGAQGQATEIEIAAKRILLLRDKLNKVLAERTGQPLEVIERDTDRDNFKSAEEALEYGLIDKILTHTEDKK

nr	SMILES	ClpP mod	p53 reactivator	miR-21 FLuc
1	CCCCCSc1nc2sc3c(c2c(=O)n1-c1ccc(OC)cc1)CCN(C(C)=O)C3	-8%	/	1%
2	CCCCc1nc2sc3c(=O)[nH]c(=S)[nH]c3c2c2c1CCC2	/	/	/
3	CCCc1cc(=O)oc2cc(C)cc(OCC(=O)Nc3ccccn3)c12	4%	-6%	2%
4	CCCc1cc(=O)oc2cc(C)cc(OCC(=O)O)c12	16µM*	4%	6%
5	CCCCNC(=S)NCCCN(Cc1ccc(Cl)c(Cl)c1)c1ccc(Br)cn1	/	/	/
6	CC(=O)c1cccc(NS(=O)(=O)c2ccc(N/C=C\C(=O)c3ccc(F)cc3)cc2)c1	-17%	9%	25%
7	CC(=O)c1cccc(N/C=C\C(=O)c2ccc(C)cc2)c1	-8%	35µM*	-57%
8	Cc1ccn2cc(-c3ccc(C)c(NS(=O)(=O)c4ccc(Cl)cc4)c3)nc2c1	4%	/	18%
9	CCCCCn1c(=O)[nH]c2cc(C(=O)NCCCN3CCCCC3)ccc2c1=O	28µM*	28%	0%
10	CCCCCn1c(=O)[nH]c2cc(C(=O)NCCCN3CCC(C)CC3)ccc2c1=O	28µM*	-11%	-6%

nr	Nrf2 block	Nrf2 activator	A549 viability
1	?	3%	2%
2	8%	1%	0%
3	15%	29%	7%
4	-12%	2%	0%
5	?	/	-16%
6	26µM*	5%	?
7	?	7%	0%
8	?	0%	-23%
9	15%	0%	2%
10	8%	-1%	4%

Later entries
nr	SMILES	ClpP mod	p53 reactivator	miR-21 FLuc
11	CCCCCn1c(=O)[nH]c2cc(C(=O)NCCN3CCC(C)CC3)ccc2c1=O	-1%	1%	8%
12	CCN(CC)CCCNC(=O)c1ccc2c(=O)n(CCc3ccccc3)c(=O)[nH]c2c1	4%	/	-1%
13	CCCCCn1c(=O)[nH]c2cc(C(=O)NCCN(CC)CC)ccc2c1=O	25µM*	3%	-3%
14	COc1ccc(Cn2c(=O)[nH]c3cc(C(=O)NCCCN4CCCC4)ccc3c2=O)cc1	-16%	2%	6%
15	COc1cc2[nH]c(=O)n(Cc3ccc(C(=O)NCCCN4CCN(C)CC4)cc3)c(=O)c2cc1OC	25µM*	0%	0%
16	CSc1cccc(NC(=O)C2CCCN(S(C)(=O)=O)C2)c1 (stereo not given)	-1%	/	/
17	COc1ccc(Nc2ncnc3c2cnn3C)c(OC)c1	2%	/	-13%
18	COc1cccc(NC(=O)CSc2nc(C)c(Cc3ccccc3)c(=O)[nH]2)c1	-2%	/	5%
19	COCCn1c(=NC(=O)c2ccc3c(c2)OCO3)c(C#N)cc2c(=O)n3cccc(C)c3nc21	/	-7%	-4%
20	COCCCn1c(C(=O)N2CCOCC2)cc2c(=O)n3cccc(C)c3nc21	28µM*	/	/

nr	Nrf2 block	Nrf2 activator	A549 viability
11	2%	-1%	-1%
12	7%[9.27 µM]	0%	1%
13	?	0%	-5%
14	5%	-1%	?
15	11%	0%	-6%
16	/	-1%	/
17	/	0%	12%
18	-10%	4%	3%
19	/	/	/
20	-13%	-1%	-5%

Other structures.
nr	SMILES	ClpP mod	p53 reactivator	miR-21 FLuc
21	CCCCn1c(=NC(=O)c2ccc3c(c2)OCO3)c(C#N)cc2c(=O)n3cccc(C)c3nc21	32µM*	2%	-10%
22	CCNC(=O)c1cc2c(=O)n3cccc(C)c3nc2n(Cc2ccc(C)cc2)c1=N	4.5µM*	-1%	-7%
23	COCCCn1c(C(=O)N2CC(C)OC(C)C2)cc2c(=O)n3cccc(C)c3nc21 (stereo not given)	3%	-5%	-13%
24	CCN(CC)C(=O)c1cc2c(=O)n3cccc(C)c3nc2n1C	32µM*	20%	-14%
25	CCCCN(CC)C(=O)c1cc2c(=O)n3cccc(C)c3nc2n1C	5%	/	0%
26	CCNc1nc(C#N)nc2c1ncn2-c1cccc(Cl)c1	/	/	/
27	COc1cccc(C2c3c(ncn(-c4ccccc4Cl)c3=N)Oc3ccc4ccccc4c32)c1 (stereo not given)	/	/	/
28	Cc1cccn2c(=O)c3cc(C(=O)NCCN4CCOCC4)c(=N)n(Cc4ccc(F)cc4)c3nc12	4%	-8%	5%
29	O=C(Cn1c(-c2cccs2)cc2cc(Cl)ccc21)N1CCCCC1	35µM*	/	8%
30	CCN1CCN(C(=O)Cn2c(-c3cccs3)cc3cc(Cl)ccc32)CC1	32µM*	/	6%

nr	Nrf2 block	Nrf2 activator	A549 viability
21	/	2%	-1%
22	/	-1%	0%
23	0%	0%	2%
24	-3%	0%	-6%
25	-8%	3%	6%
26	?	/	-15%
27	-18%	/	18%
28	16µM*	-1%	?
29	0%	20%	1%
30	6%	17%	-2%

Full records as entered above. Order of screens: ClpP mod | p53 reactivator | miR-21 FLuc | Nrf2 block | Nrf2 activator | A549 viability
CCCCN(CC)C(=O)c1cc2c(=O)n3cccc(C)c3nc2n1C across the screens: 5% | / | 0% | -8% | 3% | 6%
Cc1cccn2c(=O)c3cc(C(=O)NCCN4CCOCC4)c(=N)n(Cc4ccc(F)cc4)c3nc12 across the screens: 4% | -8% | 5% | 16µM* | -1% | ?

(listing goes on)
nr	SMILES	ClpP mod	p53 reactivator	miR-21 FLuc
31	CCOC(=O)Cn1c(-c2cccs2)cc2cc(Cl)ccc21	22µM*	/	-1%
32	O=C(O)c1ccccc1SC1=NS(=O)(=O)c2ccccc21	/	/	/
33	O=C(CSc1nc2c([nH]c3ccccc32)c(=O)n1-c1ccccc1)Nc1ccc(Cl)c(Cl)c1	-8%	/	?
34	O=C(CN1CCCC1)N1CCCc2c1c(=O)oc1ccc(OCc3ccccc3)cc21	32µM*	-1%	-4%
35	CCOC(=O)C1CCN(CC(=O)N2CCCc3c2c(=O)oc2ccc(OCc4ccccc4)cc32)CC1	-11%	/	0%
36	COc1ccc(/C=C/C(=O)Nc2ccc(C)c(S(=O)(=O)N3CCOCC3)c2)cc1	?	6%	/
37	Cc1ccc(F)cc1NC(=O)/C=C/c1ccc(S(=O)(=O)N2CCOCC2)cc1	-1%	-10%	/
38	COc1ccc(NC(=O)/C=C/c2ccc(S(=O)(=O)N3CCOCC3)cc2)cc1	1%	-5%	/
39	COc1cc2nc(N3CCN(C)CC3)nc(NC(C)C)c2cc1OC	4%	/	/
40	Cc1ccc2cc(C3C(C#N)=C(N)Oc4c3ccc3cccnc43)c(=O)[nH]c2c1 (stereo not given)	-8%	?	22%

nr	Nrf2 block	Nrf2 activator	A549 viability
31	-11%	10%	?
32	-3%	/	-1%
33	/	1%	2%
34	3%	-1%	-17%
35	-11%	1%	2%
36	23µM*	0%	-10%
37	16µM*	0%	-10%
38	-1%	0%	-2%
39	/	/	/
40	?	-1%	-4%

Remaining list, next part:
nr	SMILES	ClpP mod	p53 reactivator	miR-21 FLuc
41	CCc1ccc2[nH]c(=O)c(C3C(C#N)=C(N)Oc4c3ccc3cccnc43)cc2c1 (stereo not given)	?	-20%	18%
42	N#CC1=C(N)Oc2cc3ccccc3cc2C1c1cccnc1 (stereo not given)	-1%	-26%	15%
43	N#CC1=C(N)Oc2c(ccc3cccnc23)C1c1cccnc1 (stereo not given)	25µM*	?	29%
44	CSC(=NNC(=O)c1ccc(O)cc1)SC	28µM*	7%	-25%

nr	Nrf2 block	Nrf2 activator	A549 viability
41	15µM*	0%	?
42	?	-1%	-22%
43	?	-1%	-28%
44	1%	0%	-17%

In the list so far, these have a COOH group:
nr	SMILES	ClpP mod	p53 reactivator	miR-21 FLuc
4	CCCc1cc(=O)oc2cc(C)cc(OCC(=O)O)c12	16µM*	4%	6%
32	O=C(O)c1ccccc1SC1=NS(=O)(=O)c2ccccc21	/	/	/

nr	Nrf2 block	Nrf2 activator	A549 viability
4	-12%	2%	0%
32	-3%	/	-1%

Screening data (PubChem BioAssay)
